Laboratory results taken from US20170190775A1 (published 2017).

Chains of the proteins cited; added tags and fusions are not shown. Chains listed by the source or under a name are the forms on record and can include a tag or linker. Residues count along the entry.
UniProt Q9NP99, 21-200 limits assumed: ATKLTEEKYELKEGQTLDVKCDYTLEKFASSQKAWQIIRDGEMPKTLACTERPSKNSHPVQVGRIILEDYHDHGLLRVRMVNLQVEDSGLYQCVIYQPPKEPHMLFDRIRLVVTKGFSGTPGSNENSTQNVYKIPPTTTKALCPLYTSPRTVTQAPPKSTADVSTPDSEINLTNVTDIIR
UniProt Q9NP99, 21-234 limits assumed: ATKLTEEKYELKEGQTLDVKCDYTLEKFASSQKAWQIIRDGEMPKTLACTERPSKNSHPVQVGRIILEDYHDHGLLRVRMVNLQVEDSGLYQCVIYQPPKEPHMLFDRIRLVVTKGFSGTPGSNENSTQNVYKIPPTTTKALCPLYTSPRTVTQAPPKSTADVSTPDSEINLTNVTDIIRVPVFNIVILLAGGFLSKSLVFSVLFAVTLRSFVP
human TREM-1 Ala mut 15 (construct 0235), D127A, one chain, as listed by the source D127A D127A limits assumed: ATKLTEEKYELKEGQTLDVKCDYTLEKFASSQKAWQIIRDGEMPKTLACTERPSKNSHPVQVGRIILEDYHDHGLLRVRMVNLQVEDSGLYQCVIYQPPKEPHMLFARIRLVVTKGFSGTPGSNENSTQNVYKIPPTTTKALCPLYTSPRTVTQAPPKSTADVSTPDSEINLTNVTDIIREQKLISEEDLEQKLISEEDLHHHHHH
human TREM-1 Ala mut 16 (construct 0236), R128A, one chain, as listed by the source R128A R128A limits assumed: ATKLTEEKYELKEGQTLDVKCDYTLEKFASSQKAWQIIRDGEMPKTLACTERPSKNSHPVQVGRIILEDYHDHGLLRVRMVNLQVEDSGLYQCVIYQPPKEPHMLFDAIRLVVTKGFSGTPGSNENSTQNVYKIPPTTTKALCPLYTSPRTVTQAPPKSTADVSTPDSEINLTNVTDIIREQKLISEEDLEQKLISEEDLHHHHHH

B1: mAb 0122 (antibody, human IgG4 S228P, kappa, V domains shown)
VH: EVQLVESGGGLVQPGGSLKLSCAASGFTFSTYAMHWVRQASGKGLEWVGRIRTKSSNYATYYAASVKGRFTISRDDSKNTAYLQMNSLKTEDTAVYYCTRDMGQRRQFAYWGQGTLVTVSS
VL: DIVLTQSPDSLAVSLGERATINCRASESVDTFDYSFLHWYQQKPGQPPKLLIYRASNLESGVPDRFSGSGSGTDFTLTISSLQAEDVAVYYCQQSNEDPYTFGQGTKLEIKR
notes: Second humanised TREM-1 antibody; also called 14F113/14F69 hz variant LC M4L
B2: mAb 0170 (antibody, human IgG4 S228P, kappa, V domains shown)
VH: EVQLVESGGGLVQPGGSLKLSCAASGFTFSTYAMHWVRQASGKGLEWVGRIRTKSSNYATYYAASVKGRFTISRDDSKNTAYLQMNSLKTEDTAVYYCTRDMGIRRQFAYWGQGTLVTVSS
VL: DIVLTQSPDSLAVSLGERATINCRASESVDTFDYSFLHWYQQKPGQPPKLLIYRASNLESGVPDRFSGSGSGTDFTLTISSLQAEDVAVYYCQQSNEDPYTFGQGTKLEIKR
notes: Final humanised antibody from hybridoma 14F113 with LC M4L back-mutation and HC CDR3 Q98I (Kabat); also called 14F113/14F69 hz variant LC Q98I
B3: mAb 0054 (antibody, V domains shown)
VH: EVQLVESGGGLVQPKGSLKLSCAASGFTFNTYAMHWVRQAPGKGLEWVARIRTKSNNYATYYVDSVKDRITISRDDSQSMLYLQMNNLKTEDTAMYYCVRDMGIRRQFAYWGQGTLVTVSA
VL: DIVLTQSPASLAVSLGQRATISCRASESVDSFGISFMHWYQQSPGQPPKLLIYRASNLESGIPARFSGSGSRTDFTLTINPVEADDVATYYCQQSNEDPYTFGGGTKLEIKR
notes: Hybridoma antibody 14F128A1; also called 14F128A1; 14F128
B4: mAb 0090 (antibody, V domains shown)
VH: EVQLVESGGGLVQPGGSLKLSCAASGFTFSTYAMHWVRQASGKGLEWVGRIRTKSSNYATYYAASVKGRFTISRDDSKNTAYLQMNSLKTEDTAVYYCTRDMGQRRQFAYWGQGTLVTVSS
VL: DIVMTQSPDSLAVSLGERATINCRASESVDTFDYSFLHWYQQKPGQPPKLLIYRASNLESGVPDRFSGSGSGTDFTLTISSLQAEDVAVYYCQQSNEDPYTFGQGTKLEIK
notes: Recombinant, humanised 14F113; also called 14F113 fully humanized
B5: mAb 0120 (antibody, V domains shown)
VH: EVQLVESGGGLVQPGGSLKLSCAASGFTFSTYAMHWVRQASGKGLEWVGRIRTKSSNYATYYAASVKGRFTISRDDSKNTLYLQMNSLKTEDTAVYYCTRDMGQRRQFAYWGQGTLVTVSS
VL: DIVMTQSPDSLAVSLGERATINCRASESVDTFDYSFLHWYQQKPGQPPKLLIYRASNLESGVPDRFSGSGSGTDFTLTISSLQAEDVAVYYCQQSNEDPYTFGQGTKLEIK
notes: Recombinant; HC A78L (Kabat) back-mutation in CDR grafted 14F113; also called 14F113/14F69 hz variant HC A78L
B6: mAb 0124 (antibody, V domains shown)
VH: EVQLVESGGGLVQPGGSLKLSCAASGFTFSTYAMHWVRQASGKGLEWVGRIRTKSSNYATYYAASVKGRFTISRDDSKNTAYLQMNSLKTEDTAVYYCTRDMGQRRQFAYWGQGTLVTVSS
VL: DIVMTQSPDSLAVSLGERATINCRASESVDTFDYSFLHWYQQKPGQPPKLLIYRASNLESGVPDRFSGSGSRTDFTLTISSLQAEDVAVYYCQQSNEDPYTFGQGTKLEIK
notes: Recombinant; LC G68R (Kabat) in CDR grafted 14F113; also called 14F113/14F69 hz variant LC G68R; 14F113 hz variant LC G68R
B7: mAb 0059 (antibody, IgG1, V domains shown)
VH: EVQLVESGGGLVQPKGSLKLSCGASDFTFNTYAMHWVRQAPGMALEWVARIRTKSSNYATYYADSVKDRFTISRDDSQNMLYLQMNNLKTEDTAMYYCVRDMGQRRQFAYWGQGTLVTVSA
VL: DIVLTQSPASLAVSLGQRATISCRASESVDTFDYSFLHWYQQKPGQPPKLLIYRASNLESGIPARFSGSGSRTDFTLTINPVEADDVATYYCQQSNEDPYTFGGGTKLEIER
notes: Recombinant; also called 14F113/14F69; 14F113A1B1C1 (recombinant)
B8: mAb 0044 (antibody, IgG2a, V domains shown)
VH: EVQLEESGGGLVQPKGSLKLSCGASDFTFNTYAMHWVRQAPGMALEWVARIRTKSSNYATYYADSVKDRFTISRDDSQNMLYLQMNNLKTEDTAMYYCVRDMGQRRQFAYWGQGTLVTVSA
VL: DIVLTQSPASLAVSLGQRATISCRASESVDTFDYSFLHWYQQKPGQPPKLLIYRASNLESGIPARFSGSGSRTDFTLTINPVEADDVATYYCQQSNEDPYTFGGGTKLEIER
notes: Hybridoma antibody; also called 14F69A1; 14F69
B9: mAb 0070 (antibody, IgG4, V domains shown)
VH: EVQLVESGGGLVQPKGSLKLSCGASDFTFNTYAMHWVRQAPGMALEWVARIRTKSSNYATYYADSVKDRFTISRDDSQNMLYLQMNNLKTEDTAMYYCVRDMGQRRQFAYWGQGTLVTVSA
VL: DIVLTQSPASLAVSLGQRATISCRASESVDTFDYSFLHWYQQKPGQPPKLLIYRASNLESGIPARFSGSGSRTDFTLTINPVEADDVATYYCQQSNEDPYTFGGGTKLEIER
notes: also called 14F113/14F69 (recombinant); a-Trem-1 0070 (hIgG4)
B10: mAb 0048 (antibody, V domains shown)
VH: EVQLVESGGGLVQPKGSLKLSCAASGFTFNTYAMHWVRQAPGKGLEWVARIRTKSNNYATYYVDSVKDRITISRDDSQSMLYLQMNNLKTEDTAMYYCVRDMGIRRQFAYWGQGTLVTVSA
VL: DIVLTQSPASLAVSLGQRATISCRASESVDSFGISFMHWYQQSPGQPPKLLIYRASNLESGIPARFSGSGSRTDFTLTINPVEADDVATYYCQQSNEDPYTFGGGTKLEIKR
notes: also called 14F11A1B1; 14F11
B11: 14F113 (m14F113, hybridoma 14F113A1B1C1) (antibody, V domains shown)
VH: EVQLVESGGGLVQPKGSLKLSCGASDFTFNTYAMHWVRQAPGMALEWVARIRTKSSNYATYYADSVKDRFTISRDDSQNMLYLQMNNLKTEDTAMYYCVRDMGQRRQFAYWGQGTLVTVSA
VL: DIVLTQSPASLAVSLGQRATISCRASESVDTFDYSFLHWYQQKPGQPPKLLIYRASNLESGIPARFSGSGSRTDFTLTINPVEADDVATYYCQQSNEDPYTFGGGTKLEIER
B12: mAb 0068 (antibody, V domains shown)
VH: EVQLVESGGGLVQPKGSLKLSCAASGFTFNTYAMHWVRQAPGKGLEWVARIRTKSNNYATYYVDSVKDRITISRDDSQSMLYLQMNNLKTEDTAMYYCVRDMGIRRQFAYWGQGTLVTVSA
VL: DIVLTQSPASLAVSLGQRATISCRASESVDSFGISFMHWYQQSPGQPPKLLIYRASNLESGIPARFSGSGSRTDFTLTINPVEADDVATYYCQQSNEDPYTFGGGTKLEIKR
notes: Recombinant; also called 14F128/14F11 (recombinant)
B13: Fab region of mAb 0170 (Fab, V domains shown)
VH: EVQLVESGGGLVQPGGSLKLSCAASGFTFSTYAMHWVRQASGKGLEWVGRIRTKSSNYATYYAASVKGRFTISRDDSKNTAYLQMNSLKTEDTAVYYCTRDMGIRRQFAYWGQGTLVTVSS
VL: DIVLTQSPDSLAVSLGERATINCRASESVDTFDYSFLHWYQQKPGQPPKLLIYRASNLESGVPDRFSGSGSGTDFTLTISSLQAEDVAVYYCQQSNEDPYTFGQGTKLEIKR
notes: also called 0170 Fab; Fab 0170
B14: mAb 0067 (antibody, V domains shown)
VH: EVQLVESGGGLVQPKGSLKLSCAASGFTFNTYAMHWVRQAPGKGLEWVARIRTKSNNYATYYVDSVKDRITISRDDSQSMLYLQMNNLKTEDTAMYYCVRDMGIRRQFAYWGQGTLVTVSA
VL: DIVLTQSPASLAVSLGQRATISCRASESVDSFGISFMHWYQQSPGQPPKLLIYRASNLESGIPARFSGSGSRTDFTLTINPVEADDVATYYCQQSNEDPYTFGGGTKLEIKR
notes: also called 14F11A1B1 (recombinant)

Experiments:
[1] = target: human TREM-1 (hTREM-1) protein (human, UniProt Q9NP99 21-200, limits assumed); experiment: SPR, mAb captured by anti-Fc, hTREM-1 as analyte
[2] = target: T1, human TREM-1 on cells (human, UniProt Q9NP99 21-234); experiment: cell-based or functional assay
[3] = target: T2, cynomolgus TREM-1 (cTREM-1) protein (cynomolgus monkey); experiment: SPR, mAb captured by anti-Fc, cTREM-1 as analyte
T2 construct: also called cyno TREM-1
T2 chain: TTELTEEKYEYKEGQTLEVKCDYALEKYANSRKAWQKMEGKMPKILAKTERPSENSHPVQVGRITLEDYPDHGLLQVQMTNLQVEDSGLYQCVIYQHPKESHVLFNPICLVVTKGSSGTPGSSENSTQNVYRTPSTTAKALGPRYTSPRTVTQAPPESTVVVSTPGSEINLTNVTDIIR

[4] = target: T1, human TREM-1 on cells; experiment: cell-based or functional assay; remark: listed apart in the source
[5] = target: T1, human TREM-1 on cells; experiment: cell-based or functional assay; remark: listed apart in the source
[6] = target: T1, human TREM-1 on cells; experiment: cell-based or functional assay; remark: listed apart in the source
[7] = target: human TREM-1 Ala mut 15 (construct 0235), D127A (human); experiment: SPR, TREM-1 variant captured by anti-His, Fab as analyte
[8] = target: human TREM-1 Ala mut 16 (construct 0236), R128A (human); experiment: as above

Binder | Kd [1] [nM] | koff [1] [s⁻¹] | kon [1] [M⁻¹ s⁻¹] | IC50 of TNFalpha release, human M2 macrophages + PGLYRP1 + PGN [2] [µg/mL] | koff [3] [s⁻¹] | kon [3] [M⁻¹ s⁻¹] | IC50, BWZ/hTREM-1 reporter cells stimulated with TREM-1 ligand complex [4] [nM] | Luminescence, BWZ/hTREM-1 reporter cell + activated neutrophils (8.8 x 10E6 without antibody) [5] [luminescence] | Kd [3] [nM] | % Inhibition compared to isotype, TNFalpha release of PBMCs + PGN-SA + PGLYRP1, antibody at 0.167 nM [6] [%] | KD relative to 0247 [7] [fold] | KD relative to 0247 [8] [fold]
B1 | 0.6 | 0.0014 | 2.5e+06 | 0.014 | 0.00016 | 170000 |  |  |  |  |  | 
B2 |  |  |  | 0.012 | 0.00089 | 250000 | 2.4 |  |  |  |  | 
B3 | 2.4 | 0.0038 | 1.6e+06 |  |  |  |  | 300000 |  |  |  | 
B4 | 0.77 | 0.0015 | 2.1e+06 | 0.021 | 0.0003 | 140000 |  |  | 2.1 |  |  | 
B5 | 0.67 | 0.0015 | 2.2e+06 |  |  |  |  |  |  |  |  | 
B6 | 0.61 | 0.0012 | 2e+06 |  | 0.0002 | 170000 |  |  |  |  |  | 
B7 | 0.32 | 0.00052 | 1.7e+06 |  | 0.00012 | 180000 |  |  |  | 61 |  | 
B8 | 0.2 | 0.00029 | 1.5e+06 |  |  |  |  | 400000 |  | 68 |  | 
B9 | 0.25 | 0.00043 | 2.1e+06 |  |  |  |  |  |  | 76 |  | 
B10 | 2.4 | 0.0039 | 1.7e+06 |  | 0.00017 | 140000 |  | 400000 |  |  |  | 
B11 |  |  |  |  |  |  |  | 300000 |  |  |  | 
B12 | 1.7 | 0.0039 | 2.7e+06 |  | 0.0034 | 280000 |  |  |  |  |  | 
B13 |  |  |  |  |  |  |  |  |  |  | 1.1 | 0.9
B14 | 2 | 0.0039 | 2.2e+06 |  |  |  |  |  |  |  |  | 
